BindingDB's records for doi:10.1016/j.ejmech.2023.115234 (Sichuan University, 2023)

Amino acid sequences for entries named in this document (tags omitted). A change or cut given only in a name is not applied to a line headed by its entry.
UniProt Q99572: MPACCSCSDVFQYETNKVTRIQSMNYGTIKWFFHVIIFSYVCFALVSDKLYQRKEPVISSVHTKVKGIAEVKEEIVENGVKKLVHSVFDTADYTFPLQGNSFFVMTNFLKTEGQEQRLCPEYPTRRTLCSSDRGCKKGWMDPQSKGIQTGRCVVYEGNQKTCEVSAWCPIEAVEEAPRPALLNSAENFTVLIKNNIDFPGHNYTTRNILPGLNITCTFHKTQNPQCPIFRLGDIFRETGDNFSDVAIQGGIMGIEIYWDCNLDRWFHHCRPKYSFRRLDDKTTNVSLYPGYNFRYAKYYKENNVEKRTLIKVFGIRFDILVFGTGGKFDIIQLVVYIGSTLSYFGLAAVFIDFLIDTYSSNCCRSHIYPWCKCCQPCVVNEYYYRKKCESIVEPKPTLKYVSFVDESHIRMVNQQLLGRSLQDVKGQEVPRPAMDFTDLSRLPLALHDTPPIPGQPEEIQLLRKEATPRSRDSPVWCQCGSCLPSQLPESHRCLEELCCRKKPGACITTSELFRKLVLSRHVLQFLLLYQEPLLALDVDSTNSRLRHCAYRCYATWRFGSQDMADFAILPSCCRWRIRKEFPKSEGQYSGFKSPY

Molecular target: P2X purinoceptor 7 (Homo sapiens, UniProt Q99572)
Test: Antagonist activity at recombinant human P2X7 receptor expressed in 1321N1 cells measured after 30 mins by fluorescence based calcium flux assay

## C[C@@H]1c2nnn(-c3ccccc3)c2C[C@H](C)N1C(=O)c1cccc(C(F)(F)F)c1Cl [US9464084, 287]
  IC50: 7 nM
